As usually defined, the Kd is the free concentration of one partner at which half of the binding sites on the other are occupied at equilibrium, for simple one-to-one binding. A low value points to higher affinity.

Sequences of proteins named here, by UniProt entry; tags and fusion partners are left off. A change or cut given only in a name is not applied to a line headed by its entry. Residues count along the entry.
UniProt P04913, 32-126: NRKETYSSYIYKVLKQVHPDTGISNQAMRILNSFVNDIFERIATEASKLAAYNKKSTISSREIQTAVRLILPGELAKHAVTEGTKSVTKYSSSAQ
UniProt P04913, whole entry, chain 1 of 2: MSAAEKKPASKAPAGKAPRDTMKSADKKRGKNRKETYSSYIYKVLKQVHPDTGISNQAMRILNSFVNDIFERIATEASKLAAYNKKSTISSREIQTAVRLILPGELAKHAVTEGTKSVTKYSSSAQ

We go through two molecules from paper PMC11109203 (Nature Communications, 2024).

Assay [1] concerns the target T1, H2B_(32-126) (the H2B part of H2AB) (S. pombe, UniProt P04913 32-126).
T1 construct: In the crystal it stood on one chain with H2A_(15-108); source: E. coli Rosetta, purified as part of the H2AB fusion
Kind of assay: crystal structure; H2AB and Sad1_(110-126) mixed at a molar ratio of 1:2; 0.2 M potassium nitrate, 20% w/v PEG-3350; 2.15 Å. The conditions noted are these: both partners purified.

The target of assay [2] is T2, S. pombe H2A-H2B heterodimer (S. pombe, UniProt P04913 1-126; P04909 1-132).
T2 construct: histone H2B, S. pombe; histone H2A, S. pombe; also called H2B/H2A heterodimer; source: E. coli Rosetta, co-expressed from a modified pCDF-Duet vector, purified; copies: 1 + 1
The experiment in a line: ITC; MicroCal ITC200, 20 °C; 25 mM Tris-HCl pH 8.0, 400 mM NaCl, 2 mM DTT; Sad1 (500 μM) titrated into H2AB (50 μM). The conditions noted are these: both partners purified. On the technique in general: ITC needs no label: the signal is the heat of the interaction.

B1: Sad1_(110-126) (peptide, UniProt Q09825 110-126, looked up)
chain: ESDGDDEEFVNEEYENS
notes: Cleavage of GST is told only in general for all Sad1 fragments not needed with the tag; also called Sad1HBM (in the crystal structure); source: E. coli Rosetta, purified; not shown: GST, N-terminal, cleaved
On to B1, for which the binding result in assay [1] was “binds”.

B2: Sad1_(1-169) (domain or fragment, S. pombe, UniProt Q09825 1-169, looked up)
chain: MFTNTPVGGKRERQNGAHPAWSTLGANSAQIHQNTADLASKMHKLRYTKIRSPPTRVSIESITPKQRFPAPNFEQAYHSNIRYEQEESDNEEFENVVKNGHEASTNVFYESDGDDEEFVNEEYENSIDEESDDEGYSLNEDTTATNASFRYPMNQRSTRKSQFYSSKFK
notes: Cleavage is told in general for proteins not needed with their tag; used in ITC, SEC and MST; also called Sad1NTD; source: E. coli Rosetta, purified (glutathione Sepharose 4B, 3C digestion on beads, Superdex); not shown: GST, N-terminal, cleaved
With B2, binding in assay [2] was characterised by a dissociation constant (Kd) of 7.5 µM.
